Patent publication US20080119432, “Inhibition Of Metallo-Beta-Lactamase By Rna” (published 2008)

T1: metallo-beta-lactamase (beta-lactamase II, 5/B/6) (Bacillus cereus 5/B/6) (UniProt P14488)
T1 sequence: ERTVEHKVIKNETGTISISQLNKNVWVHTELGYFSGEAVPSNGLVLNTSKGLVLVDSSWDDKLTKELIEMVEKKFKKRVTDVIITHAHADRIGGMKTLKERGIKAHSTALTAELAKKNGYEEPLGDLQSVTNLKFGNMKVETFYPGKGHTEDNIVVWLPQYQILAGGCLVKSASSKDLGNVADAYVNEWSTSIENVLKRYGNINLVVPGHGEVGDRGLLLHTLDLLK

T2: metallo-beta-lactamase (beta-lactamase II, 5/B/6) (Bacillus cereus 5/B/6, UniProt P14488 SEQ:2-228)
T2 sequence: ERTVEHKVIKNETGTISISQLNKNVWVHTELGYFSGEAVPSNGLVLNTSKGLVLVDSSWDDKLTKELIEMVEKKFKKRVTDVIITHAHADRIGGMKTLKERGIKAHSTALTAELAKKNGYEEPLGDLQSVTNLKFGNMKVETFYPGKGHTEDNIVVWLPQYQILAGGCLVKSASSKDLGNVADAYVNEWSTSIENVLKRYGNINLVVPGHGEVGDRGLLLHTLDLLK


Columns and labels:
[1] = biological target: T1, metallo-beta-lactamase (beta-lactamase II, 5/B/6) (Bacillus cereus 5/B/6); test: inhibition; conditions: preliminary; random pool before first SELEX round; 4.3 mM cephalosporin C, 50 mM MOPS pH 7.0
[2] = biological target: T2, metallo-beta-lactamase (beta-lactamase …); test: inhibition; 4.3 mM cephalosporin C, 50 mM MOPS pH 7.0; conditions: tags: expressed in E. coli TAP56 from pRE2/bla

Row | Molecule | IC50 [1] [nM] | IC50 [2] [nM]
1 | GGGAACAGUCCGAGCCNNNNNNNNNNNNNNNNNNNNNNNNNNNNNNCGCGCGGAGCUCGCG [random pool RNA (30 nt randomized)] | 0.021 | –
2 | GGGUCUGGCCC (ssRNA) [11-mer RNA] | – | 430
